In the assay the target is truncated human beta-secretase, BACE1 (amino acids 1-454) (Homo sapiens (Human), UniProt P56817). Description: BACE1 Assay (Assay 1), fluorescence quench assay. The format is biochemical. Particulars: Table 1; pH 4.4, 1 μM substrate peptide; read-out: BACE 1 IC50 nM (Assay 1). As to the method:
The inhibitory activity of compounds was assessed by a fluorescence quench assay of BACE1 activity using commercially available substrate HiLyte Fluor™488-Glu-Val-Asn-Leu-Asp-Ala-Glu-Phe-Lys-(QXL™ 520)-OH (SEQ ID NO:1) (AnaSpec, San Jose, Calif.) and truncated human beta-secretase, BACE1 (amino acids 1-454) fused to a myc-his tag and secreted from HEK293/BACEect. cells into OptiMEM™ (Invitrogen). The substrate was dissolved at 1 mg/ml in DMSO.
The assay was performed in the presence of OptiMEM™ (supernatant collected over 24 h and cleared from cellular debris by centrifugation) containing the ectodomain of BACE1, 25 μl water containing the desired 2-fold concentration of test compound and 2% DMSO, 1 μM substrate peptide, 20 mM NaOAc, pH 4.4, and 0.04% Triton-X100 in a total assay volume of 50 μl in a 384 well plate. […] The reaction was incubated at rt (dark) in an Envision® multilabel reader (Perkin Elmer) and the cleavage of the substrate was recorded as kinetic for 60 min at ex: 485 nm, em: 538 nm. […]
The intensity of fluorescence was regressed against time in order to derive velocities of reaction in all 384 wells. […] IC50 values were calculated by fitting percent control vs. test compound concentration using Assay Explorer®.

Protein sequences, listed by entry. Tags and fused reporters are not part of them. Residues count along the entry.
UniProt P56817, 22-454: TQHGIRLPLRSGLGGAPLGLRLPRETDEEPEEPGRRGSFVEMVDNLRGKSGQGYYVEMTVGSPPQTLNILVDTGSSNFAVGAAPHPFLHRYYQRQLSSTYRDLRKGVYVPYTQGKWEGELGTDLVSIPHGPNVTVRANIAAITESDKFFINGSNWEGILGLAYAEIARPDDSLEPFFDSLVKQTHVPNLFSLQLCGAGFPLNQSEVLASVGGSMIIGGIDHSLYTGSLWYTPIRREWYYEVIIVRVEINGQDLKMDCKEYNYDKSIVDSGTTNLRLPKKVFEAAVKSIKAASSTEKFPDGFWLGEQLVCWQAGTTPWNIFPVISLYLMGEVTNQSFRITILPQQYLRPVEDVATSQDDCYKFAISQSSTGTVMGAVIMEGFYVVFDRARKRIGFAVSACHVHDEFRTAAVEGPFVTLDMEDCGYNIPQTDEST

The term IC50 denotes the concentration that gives 50% inhibition. Turning to `CO[C@H]1CC[C@@]2(Cc3ccc(Br)cc3C23N=C(C)C(N)=N3)C[C@@H]1C` (stereo partly shown) [Example 4], the IC50 stood at 16.3 nM.

(Values after US9290477B2, “Inhibitors of β-secretase” (Vitae Pharmaceuticals, Inc., priority 2012, dated 2016).)
